Bioassay records (PubChem)
Glioma ERSR ind = induces the endoplasmic reticulum stress response in human glioma cells; U87-MG GRP78 promoter luciferase reporter, 16 h; Potency, µM, inactives show top-dose activation, most hits filed as activators; 420,000 compounds, 0.02% hits; AID 602332; also: potency is read from the fitted curve at half-maximal effect; series mostly up to about 76 µM; % of control where 0% means no effect; nearly all actives have a fitted effect of over 35% in size
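ERSR induction read as luciferase luminescence (Bright-Glo, 10 min at room temperature) in stably transfected human U87-MG glioma cells exposed to compounds for 16 h, using GRP78 as sensor.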
Nrf2 activator = Nrf2 pathway activation. AREc32 ARE-luciferase reporter (MCF7-derived line), luminescence, 24 h. Potency, µM (top dose mostly 46.1 µM), without a hit: at the highest dose activation, usual class: activators. 410,000 compounds, 0.31% hits. AID 624171; also: potency is read from the fitted curve at half-maximal effect; % of control where 0% means no effect; nearly all actives have a fitted effect of over 65% in size
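AREc32_Fluc, 1000 cells/well, OPTI-MEM + 5% FBS, o/n 37 deg C 5% CO2; 23 nL cpd by pin tool, 24 hr; Steady-Glo 30 min RT, luminescence.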
A549 tox = A549 cytotoxicity, counter-screen for Nrf2 inhibitors; A549 ARE-Fluc cells, CellTiter-Fluor viability, 18-24 h; Potency, µM (highest dose often 46 µM), without a hit: at the top dose activity change, negative = cytotoxicity, hits mostly inhibitors; 390,000 compounds, 0.16% hits; also: potency is read from the fitted curve at half-maximal effect; % is scaled to controls: 0 for no effect and ±100 for the full control effect
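A549 ARE_Fluc cells in 5% FBS OPTI-MEM were exposed to compounds in concentration-response for 18-24 h at 37 deg C. Viability was read by CellTiter-Fluor fluorescence (Ex 405/Em 525) after 30 min, before the luciferase read.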
miR-21 reporter = miR-21 reporter, rising signal; Potency, µM (titrated, usually from 38.3 µM), without a hit: at the highest dose reporter change, positive = more light; AID 2288; 340,000 tested, under 10 active; HeLa miR-21 FLuc reporter, luciferase, 48 h; active = well fitted rising curve with a large enough effect; inconclusive = small, poorly fitted or top-dose-only effect; inactive = no such curve, though single readings can be large or run the other way;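 note: % of control where 0% means no effect; miR-21 action dims this reporter so a rising signal means less miR-21 action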
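HeLa cells endogenously expressing miR-21, stably carrying CMV-driven firefly luciferase with a downstream miR-21 binding site, 2000 cells/well. Titrations up to approximately 40 uM, 48 hours; luciferase luminescence read.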
Mito fusion yeast = mitochondrial division inhibition or fusion activation | 320,000 compounds, 0.23% hits | S. cerevisiae fusion-defective mutant growth rescue, CellTiterGlo 48 h | AID 485298 | Potency, µM (series often up to 46.1 µM), inactives show at the highest dose growth rescue (activation), actives largely listed as activators; also: potency is read from the fitted curve at half-maximal effect; % of control where 0% means no effect; nearly all actives have a fitted effect of over 45% in size
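S. cerevisiae fusion-defective temperature-sensitive mutants (e.g. fzo1-1, mgm1-5) grown 48 h at 37C in YPEG (ethanol/glycerol non-fermentable) medium with 23 nl compound per well; growth rescue read as CellTiterGlo luminescence.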
Nrf2 inh = blocks Nrf2 signaling; Potency, µM (doses to about 46 µM), for the others: at the top dose activity change, negative = inhibition, actives largely listed as inhibitors; 360,000 compounds, 2.1% hits; A549 ARE-Fluc reporter, luciferase luminescence, 18-24 h; also: potency is read from the fitted curve at half-maximal effect; % is scaled to controls: 0 for no effect and ±100 for the full control effect; nearly all actives have a fitted effect of over 60% in size
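Nrf2 function is reported as luminescence of an ARE-controlled luciferase in A549 cells. Compounds were tested at several concentrations, and a CellTiter-Fluor read on the same wells flagged cytotoxicity.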
Starred values were filed as active, the others as inactive; u = inconclusive; x = not tested or not shown; ! = not active in a repeat; [ ] = dose if it differs, or a comment. Compounds with a hit are over-represented: about 2.3% of the library has one in this group of screens. Unless noted, calls follow the shape of the dose curve; as a rule, active = well fitted curve in the direction sought with a large enough effect; inconclusive = small, poorly fitted or top-dose-only effect, or another doubt; inactive = no such curve, though single readings can be large; an effect the other way counts as inactive or inconclusive.

1) CN(Cc1ccccc1)C(=O)Cn1c(=O)oc2cc(S(=O)(=O)NCc3ccccc3)ccc21
2) O=[N+]([O-])/C=C/c1c(Cl)cccc1Cl
3) Cc1cccc(N2CCN(C(=O)CCCCn3c(=O)[nH]c4ccsc4c3=O)CC2)c1C
4) O=C(/C=C/c1ccc2c(c1)OCO2)c1c(O)n(CCc2ccccc2)c(=O)[nH]c1=O
5) O=C(/C=C/c1ccccc1)c1c(O)n(CCc2ccccc2)c(=O)[nH]c1=O
6) COc1ccc(C(=O)NCCn2cc(SC(C)c3ccccc3)c3ccccc32)cc1OC (stereo not given)
7) COC(=O)CC1(Cc2ccccc2)C(=O)NC(=O)NC1=O
8) CCOP(=O)(OCC)Oc1cc(C)c(N(C)C)c(C)c1

| assay / entry | 1 | 2 | 3 | 4 | 5 | 6 | 7 | 8 |
| --- | --- | --- | --- | --- | --- | --- | --- | --- |
| Glioma ERSR ind | -4% | -14% | -5% | -3% | -4% | -3% | -2% | 0% |
| Nrf2 activator | 0% | 14µM* | 0% | u | 8.9µM* | 1% | -1% | 4% |
| A549 tox | -5% | -6% | -3% | u | u | -19% | -9% | -2% |
| miR-21 reporter | 28% | x | u | -2% | -3% | u | -2% | 0% |
| Mito fusion yeast | 2% | x | x | -3% | -1% | x | -3% | 2% |
| Nrf2 inh | 18µM* | -26% | -34%[9.27 µM] | u | -6% | 23µM* | 9% | 3% |

9) CC[C@@]1(O)C(=O)OCc2c1cc1n(c2=O)Cc2cc3c(O)cccc3nc2-1
10) CC[C@@]1(O)C(=O)OCc2c1cc1n(c2=O)Cc2cc3c(NC(=O)CN)cccc3nc2-1
11) CCC1(OC(=O)CN)C(=O)OCc2c1cc1n(c2=O)Cc2cc3ccccc3nc2-1 (stereo not given)
12) Cc1ccnc(SCc2nc3ccccc3s2)n1
13) O=C(CNS(=O)(=O)c1ccc(Br)s1)N1CCC2(CC1)OCCO2
14) COC(=O)C(O)(c1ccc(NC(=S)NC(=O)c2ccc(Cl)cc2Cl)c(C)c1)C(F)(F)F (stereo not given)
15) CCOC(=O)C(O)(c1ccc(NC(=S)NC(=O)c2ccc(Cl)cc2Cl)c(C)c1)C(F)(F)F (stereo not given)
16) Cc1ccc(-c2c(C)n3c4c(=O)n(C)c(=O)n(C)c4nc3n2CCO)cc1

| assay / entry | 9 | 10 | 11 | 12 | 13 | 14 | 15 | 16 |
| --- | --- | --- | --- | --- | --- | --- | --- | --- |
| Glioma ERSR ind | -3% | -5% | -7% | 6% | u | 4% | 2% | -3% |
| Nrf2 activator | x | 0% | 0% | 13µM* | 4% | 3% | -1% | 0% |
| A549 tox | x | -8% | u | 0% | 1% | -2% | u | -20% |
| miR-21 reporter | x | 14% | u | -71% | -12% | 24% | u | u |
| Mito fusion yeast | x | 6% | 0.79µM* | 5% | -3% | -24% | -7% | 1% |
| Nrf2 inh | x | 2.6µM* | 0.58µM* | x | x | u | 15µM* | x |

17) C[C@]12CC[C@H](O)CC1=CCC1C2CC[C@@]2(C)C1C[C@@H](O)[C@@H]2O (stereo not given in full)
18) C[C@]12CC[C@@H](O)CC1=CCC1C2CC[C@@]2(C)C1C[C@@H](F)[C@@H]2O (stereo not given in full)
19) CC(=O)C1C(N2CC2)CC2C3CC=C4CC(O)CCC4(C)C3CCC21C (stereo not given)
20) COc1ccc2c(c1)CCc1c(C(=O)Nc3c(C)nn(Cc4ccccc4C)c3C)noc1-2
21) COC(=O)c1ccccc1NC(=O)c1cccn(Cc2cccc(Cl)c2)c1=O
22) FC(F)(F)c1cccc(NC2=NCCS2)c1
23) Cc1cccc(C(=O)Nc2nnc(SCC(=O)NCc3ccco3)s2)c1
24) CCOC(=O)CC1c2ccccc2-n2nncc2CN1C (stereo not given)

| assay / entry | 17 | 18 | 19 | 20 | 21 | 22 | 23 | 24 |
| --- | --- | --- | --- | --- | --- | --- | --- | --- |
| Glioma ERSR ind | -4% | 5% | 6% | -4% | -3% | 2% | 3% | -2% |
| Nrf2 activator | 0% | 0% | 9% | 4% | 1% | 3% | 3.2µM* | 0% |
| A549 tox | 9% | 1% | 8.2µM* | -6% | 20% | x | 2% | 7% |
| miR-21 reporter | x | x | x | 23% | 3% | x | x | x |
| Mito fusion yeast | x | x | x | x | x | x | x | x |
| Nrf2 inh | 12% | -1% | 3% | 18µM* | x | x | 9% | 0% |

25) CCOC(=O)CC1c2ccccc2-n2nncc2CN1Cc1ccc(OC)cc1 (stereo not given)
26) C[C@H]1CC[C@@]2(C)[C@@H](CC[C@@H]3[C@@H]2CC[C@]2(C)[C@@H](O)CC[C@@H]32)C1
27) CC(=O)[C@H]1CCC2C3CC[C@H]4C[C@H](O)CC[C@]4(C)C3CC[C@@]21C (stereo not given in full)
28) C[C@]12CCC3C(CC[C@H]4C[C@H](O)CC[C@]34C)C1CC[C@@H]2C(=O)CO (stereo not given in full)
29) C[C@@]12CCC3C(CCC4=CC(=O)CC[C@]43C)C1CCC2O (stereo not given in full)
30) CC(=O)[C@H]1CC[C@H]2[C@@H]3CCC4=CC(=O)CC[C@]4(C)[C@H]3CC[C@]12C
31) CC1C(=O)OC2CCN3CC4OC4(COC(=O)C(C)(O)C1(C)O)C23 (stereo not given)
32) Cc1ccc(Cn2cccc(C(=O)Nc3ccc(C)c(Cl)c3)c2=O)cc1

| assay / entry | 25 | 26 | 27 | 28 | 29 | 30 | 31 | 32 |
| --- | --- | --- | --- | --- | --- | --- | --- | --- |
| Glioma ERSR ind | -1% | 0% | 0% | -3% | -4% | -1% | -5% | -1% |
| Nrf2 activator | 0% | -1% | x | x | x | 0% | -1% | -1% |
| A549 tox | -11% | 9% | x | x | x | -12% | 1% | -1% |
| miR-21 reporter | x | -6% | x | x | x | 20% | x | 6% |
| Mito fusion yeast | x | 13µM* | 5.2µM* | 18µM* | x | 18µM*! | x | x |
| Nrf2 inh | 23µM* | -19% | x | x | x | 0% | -8% | x |

Some entries already given, reduced to A549 tox, miR-21 reporter and Glioma ERSR ind:
item	Molecule	A549 tox	miR-21 reporter	Glioma ERSR ind
21	COC(=O)c1ccccc1NC(=O)c1cccn(Cc2cccc(Cl)c2)c1=O	20%	3%	-3%
22	FC(F)(F)c1cccc(NC2=NCCS2)c1	x	x	2%
23	Cc1cccc(C(=O)Nc2nnc(SCC(=O)NCc3ccco3)s2)c1	2%	x	3%

Reformatted with values under each structure: 2 of the compounds above.
Values in the order: Glioma ERSR ind | Nrf2 activator | A549 tox | miR-21 reporter | Mito fusion yeast | Nrf2 inh
27	CC(=O)[C@H]1CCC2C3CC[C@H]4C[C@H](O)CC[C@]4(C)C3CC[C@@]21C (stereo not given in full)
  0% | x | x | x | 5.2µM* | x
29	C[C@@]12CCC3C(CCC4=CC(=O)CC[C@]43C)C1CCC2O (stereo not given in full)
  -4% | x | x | x | x | x

Next section
33) OC(c1ccc(F)cc1)(c1ccc(F)cc1)[C@@H]1CCCN1
34) O=C(Nc1ccc2nc(SCC(=O)N3CCCc4ccccc43)sc2c1)c1ccccc1F
35) COc1ccccc1C(=O)Nc1ccc2nc(SCC(=O)N3CCCc4ccccc43)sc2c1
36) CCCc1cc(N2CCN(c3ccc(OC)cc3)CC2)n2cnnc2n1
37) CN1CCN(c2ccc(C(F)(F)F)cc2N)CC1
38) CCOC(=O)[C@]12Cc3cc(C)ccc3[C@H]1N(Cc1ccccc1)C(=O)c1ccccc12
39) CCOC(=O)[C@]12Cc3cc(OC)ccc3[C@H]1N(Cc1ccccc1)C(=O)c1ccccc12
40) COc1ccc(C(=O)C2CCCN(Cc3cnc(C)s3)C2)c(OC)c1 (stereo not given)
41) c1ccc(NC2=Nc3ccccc3CC2)cc1
42) CC(O)C1C=CC=CC(=O)OC2CC3OC4C5OC5(C)CCC4(COC(=O)C4OC4(C)C(O)CO1)C2(C)C31CO1 (stereo not given)

| assay / entry | 33 | 34 | 35 | 36 | 37 | 38 | 39 | 40 | 41 | 42 |
| --- | --- | --- | --- | --- | --- | --- | --- | --- | --- | --- |
| Glioma ERSR ind | -4% | -1% | -4% | -2% | 1% | -4% | -6% | -1% | 0% | -6% |
| Nrf2 activator | 0% | 0% | 4% | -1% | 1% | -1% | 4% | 5% | 3% | -1% |
| A549 tox | -3% | -16% | -6% | -18% | 4% | u | -20% | -7% | -1% | x |
| miR-21 reporter | 0% | 23% | 21% | 24% | -25% | x | x | -2% | -51% | x |
| Mito fusion yeast | -4% | x | x | x | 2% | x | x | 4% | -3% | x |
| Nrf2 inh | -2% | u | 18µM* | 12µM* | 13% | 23µM* | u | 21µM* | u | 0.23µM* |
